Assay results from patent publication US20250059267A1, “COMBINATION THERAPY FOR TREATMENT OF TUMORS COMPRISING CANCER-ASSOCIATED FIBROBLASTS” (PHENOMIC AI, priority 2021, published 2025).

Test system: CCD-18Co normal colon fibroblasts
Test: Cytokine stimulation of fibroblast monocultures, CAF marker immunofluorescence
Type: cell-based, human
Conditions: fibroblast monoculture, stimulated 48 hours
Experimental: FIG. 1 Fibroblast-cancer co-cultures lead to a greater increase in CAF activation markers than treatment with a single cytokine alone, indicating a cocktail of factors are needed to induce more disease relevant CAFs. CCD-18Co normal colon fibroblasts were either cultured in minimal media (Untreated), with the addition of a cytokine (TGF-β 1.2 ng/mL, TNF-α 1 ng/mL, PDGFbb 4 ng/mL, or aFGF 2 ng/mL), or co-cultured in minimal media with HCT116 or HT-29 colon cancer cells. A panel of 5 CAF markers were then used to stain the cultures and the expression levels of expression of the markers calculated from individual segmented fibroblasts.
First, we treated normal human fibroblasts with a panel of cytokines to induce activation, and then assessed CAF marker expression by immunofluorescence. Fibroblast monocultures were serum-starved for 24 hours then stimulated with TGF-β, TNF alpha, PDGFbb, acidic FGF or other cytokines for 48 hours. Cells were then fixed, permeabilized and stained with a panel of immunofluorescent CAF markers and imaged by high-content microscopy. […] Incubation with TNFα increased PDPN expression, but not CD248 expression, consistent with the idea that PDPN and CD248 mark different fibroblast states.

## TNFα: cytokine used to stimulate fibroblasts
  CD248 expression: not
  PDPN expression: increased
